These results are taken from PubChem BioAssay AID750 (Sanford-Burnham Center for Chemical Genomics, 2007).

SMILES strings stand for the structures. The entries are a selection whose mix differs from that of the whole data set. Active and inactive are the calls of the source.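 The calls were made as follows: active = activation factor of at least 2 for MT1-MMP transcription at 10 µM; inactive = the rest.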

A short description of the assay: MT1-MMP promoter reporter activation – cell-based, luciferase luminescence, primary screen (AID 750). The note with it: HT1080 MT1-MMP promoter luciferase reporter, overnight, at 10 µM, hits give high values.
As for `O=C(NCC1(N2CCOCC2)CCCCC1)c1cc2ccccc2o1`, the activation factor is inactive: 1.2.
For `O=C(OC1CN2CCC1CC2)C1c2ccccc2Oc2ccccc21` (stereo not given) the value was inactive: 1.1; for `COc1ccc(NC2CCN(CCc3ccccc3)CC2)c(OC)c1`, inactive: 1.1; for `N#CC1(Nc2ccccc2)CCN(CCc2ccccc2)CC1`, inactive: 1.2.
For `O=C(NCC1(N2CCOCC2)CCCCC1)c1cc(=O)[nH]c2ccccc12` the value was inactive: 1.2; for `N/C(=N\O)c1c(N)no[n+]1[O-]`, inactive: 1; for `c1ccc(CN2CCC(Nc3ccccc3)CC2)cc1`, inactive: 1.
For `Fc1ccccc1NC1CCN(Cc2ccccc2)CC1` the value was inactive: 1.1; for `CCOc1ncccc1C(=O)NCC1(N2CCOCC2)CCCCC1`, inactive: 1.1.
In the case of `CCC(CO)(C(=O)OC1CN2CCC1CC2)c1ccccc1` (stereo not given), the activation factor was inactive: 1.
